Test results published in patent publication US20230310438A1 (priority 2019, published 2023).

Tested on: Balb/c mice
Conditions: after two vaccinations; adjuvant and F1-CRM antigen adsorbed to alum

With `CCCCCCCCCCC[C@H](CC(=O)NCCO[C@@H]1OC(CO)[C@@H](OS(=O)(=O)O)C(NC(=O)C[C@@H](CCCCCCCCCCC)OC(=O)CCCCCCCCC)C1NC(=O)C[C@@H](CCCCCCCCCCC)OC(=O)CCCCCCCCC)OC(=O)CCCCCCCCC` (stereo partly shown) the anti-fentanyl antibody titers was “dose responsive increase”.
